Assay results published in PubChem BioAssay AID651689 (The Scripps Research Institute Molecular Screening Center, 2012).
Active and inactive are the calls of the source. How the calls were made is not given here.

By UniProt entry, the sequences of proteins in these tests, tags left out.
UniProt P35372, whole entry, looked up: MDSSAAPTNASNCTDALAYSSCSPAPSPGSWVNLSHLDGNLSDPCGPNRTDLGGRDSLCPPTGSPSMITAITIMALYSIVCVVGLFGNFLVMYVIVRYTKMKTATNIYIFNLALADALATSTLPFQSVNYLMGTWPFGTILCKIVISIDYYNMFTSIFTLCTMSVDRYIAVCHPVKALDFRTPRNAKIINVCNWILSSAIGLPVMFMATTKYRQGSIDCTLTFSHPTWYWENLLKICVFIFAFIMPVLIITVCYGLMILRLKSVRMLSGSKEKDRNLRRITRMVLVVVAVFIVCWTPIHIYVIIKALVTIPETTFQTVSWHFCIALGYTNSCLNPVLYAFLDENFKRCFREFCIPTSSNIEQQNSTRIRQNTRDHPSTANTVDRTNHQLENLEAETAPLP

Target: Mu-type opioid receptor (Homo sapiens) (UniProt P35372)
Test: mu opioid receptor agonists, OPRM1-only line – cell-based, luminescence, dose response, counter-screen for OPRM1-OPRD1 heterodimer activator project, late-stage follow-up (AID 651689)
Conditions: luminescence activation counterscreen

In the case of `CCOc1ccc(CN2CCC(Nc3cccc4ccccc34)CC2)cc1C#N`, the EC50 was inactive: > 40 µM.
